Earlier results in patent US20250197658A1, “ANTIOXIDANT STABILIZERS FOR DIRECT FABRICATION OF ORTHODONTIC APPLIANCES” (Align Technology, Inc., priority 2023, published 2025).

Conditions: cited from earlier work

Vitamin E
amount most people can take: up to 1000 mg/day
